# Results: patent US9873709B2 (priority 2013, dated 2018)
# Protein sequences, listed by entry. Tags and fused reporters are not part of them. Residues count along the entry.
# UniProt P23458, 875-1153: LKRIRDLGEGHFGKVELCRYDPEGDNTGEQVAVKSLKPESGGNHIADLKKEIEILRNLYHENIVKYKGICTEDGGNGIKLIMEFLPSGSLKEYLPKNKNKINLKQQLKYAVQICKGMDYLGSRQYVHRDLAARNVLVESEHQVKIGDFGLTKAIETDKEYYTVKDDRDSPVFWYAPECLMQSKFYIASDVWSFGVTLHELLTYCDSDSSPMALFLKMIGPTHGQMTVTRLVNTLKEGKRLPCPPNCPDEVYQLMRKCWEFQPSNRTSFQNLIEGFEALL
# Biological target: isolated recombinant JAK1 kinase domain (Homo sapiens (Human), UniProt P23458)
# Details: read-out: JAK1 Ki
smiles,measurement,value
"CN1CCC(N(C)C(=O)c2ccc(Nc3nc4c(Oc5ccccc5)cccn4n3)cc2)CC1 [Example 1-248, N-Methyl-N-(1-methyl-piperidin-4-yl)-4-(8-phenoxy-[1,2,4]triazolo[1,5-a]pyridine-2-ylamino)-benzamide]",Ki,103 nM
